## AlphaSeq binding of Ab-14 heavy chain variants to a spike HR2 peptide

Source: Engelhart et al. 2022 (doi:10.1038/s41597-022-01779-4), MIT Lincoln Laboratory and A-Alpha Bio; data file from the FLAb repository.

Binding partner: SARS-CoV-2 spike HR2 peptide, sequence PDVDLGDISGINAS.

Ab-14 is the parent antibody, in scFv form: VH, then a 15-residue (Gly4Ser)3 linker, then VL. The light chain is unchanged in all variants.
VH: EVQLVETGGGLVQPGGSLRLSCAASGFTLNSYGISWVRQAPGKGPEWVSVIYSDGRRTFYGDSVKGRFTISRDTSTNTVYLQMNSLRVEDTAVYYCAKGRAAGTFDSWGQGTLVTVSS
VL: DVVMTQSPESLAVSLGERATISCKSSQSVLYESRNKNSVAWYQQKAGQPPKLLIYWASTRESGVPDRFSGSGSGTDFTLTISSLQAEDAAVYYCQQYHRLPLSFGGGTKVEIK

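Phage display of a naive human antibody library on the peptide gave the parent. In library AAYL49, one, two or three CDR residues were substituted; doubles and triples were drawn at random. The scFvs were displayed on barcoded MATa yeast, the peptide on MATalpha yeast. Pairs that bind mate more often; barcode pairs of the diploids are counted by sequencing. A regression on co-assayed BCL2-family reference pairs converts the normalised counts of each replicate to an apparent Kd. There are three technical replicates.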

The parent's heavy chain CDRs are GFTLNSYGIS, VIYSDGRRTFYGDSVK, GRAAGTFDS; each variant's own CDRs replace them letter for letter. Scale: log10 of Kd in nM, estimated from mating counts; low values are strong binders. Averages over replicates are reported, and they cover detected replicates only. An entry "ND" has no value in the source: the pair was not observed among the diploids in that replicate. This suggests poor binding but is not conclusive. Parent in this assay: reference entry 0.65, copy in this library 4.11 (one replicate of three). Nonspecific signal, from three strains lacking the peptide, appeared in 15% of pairings of library AAYL49, centred on 4.06 (5% of these signals below 2.83); values are not corrected for it. The control count says in how many pairings with the empty strains this scFv gave a signal, with their mean in brackets.

CDR-H1	CDR-H2	CDR-H3	replicates, log10 nM	mean, log10 nM	signal with controls
GFTLNSYGIS	VICSDGRRTFYDDSVK	YRAAGTFDS	ND / ND / ND	ND	0 of 9
GFTTNSYGIS	VIYSDGCRNFYGDSVK	GRAAGTFDS	ND / ND / ND	ND	0 of 9
GFTLNSYGIS	WIYSDGRATFYGDSVK	GRRAGTFDS	ND / ND / ND	ND	2 of 9 (3.70)
GFTLNSYVIS	VIYSDGNRTFYGDSVK	GFAAGTFDS	ND / 3.68 / ND	3.68	1 of 9 (4.35)
GFTLNSYEII	VIYSDGRRTFYGDSVK	PRAAGTFDS	ND / ND / ND	ND	2 of 9 (3.99)
GFTLNSYGIS	VKYSDARRIFYGDSVK	GRAAGTFDS	ND / 3.11 / ND	3.11	1 of 9 (4.28)
GFTLNSVGIS	VISSDGRRTFYGDSVK	GRAAFTFDS	3.01 / ND / ND	3.01	1 of 9 (3.18)
GFTLNSQGIS	VPYSDGRRTFYGDSVK	GRAAGTFDT	3.99 / 5.07 / 4.42	4.49	8 of 9 (4.98)
GFTLNSYGIS	TIYSDGRRTFYGDSVK	FRAAGTFDS	3.37 / 3.11 / 3.63	3.37	4 of 9 (3.69)
GFTLNCYTIS	VIYSDGRRTFYGDSVK	GRAAGTGDS	ND / 3.72 / ND	3.72	0 of 9
GFTWNSYGIS	VIYSDGRSTFYGDSVK	GGAAGTFDS	ND / ND / ND	ND	0 of 9
GFTLGSYGIS	KRYSDGRRTFYGDSVK	GRAAGTFDS	ND / 4.98 / ND	4.98	2 of 9 (3.61)
GFTLNSYGIS	VIYSDGRRTFYKDSVK	GRAAPTFSS	ND / ND / ND	ND	0 of 9
GFTPNSYGIS	VIYSDGRRTFYCDSVK	GRAAGHFDS	ND / ND / 1.81	1.81	1 of 9 (2.12)
GFTLNSYGIS	VICSDGRRTFYGDSVK	GRYAGRFDS	ND / ND / ND	ND	0 of 9
GFTLNSYGIS	VIYSDGRMTFYGDSVK	GRAAGWFDS	5.24 / 4.03 / 4.40	4.56	6 of 9 (4.29)
GFTLRSIGIS	VIYSDGRRTFYGDSFK	GRAAGTFDS	4.86 / ND / ND	4.86	1 of 9 (3.34)
GFTLNSYGPV	VIYSDGRRTFYGDSVK	GRAAGTMDS	2.79 / ND / ND	2.79	0 of 9
GFTLNSYSIS	VSYSDGRRKFYGDSVK	GRAAGTFDS	ND / ND / ND	ND	1 of 9 (5.24)
GFTLKSYGIS	VIYSDGRHTFYGDSSK	GRAAGTFDS	3.51 / ND / ND	3.51	0 of 9
GFTLNSYGIS	VIYSDGRRTFYGRSWQ	GRAAGTFDS	ND / ND / 2.87	2.87	0 of 9
GFTLNSYGIS	VIYSDGRRHFYGDSVT	GRAAGVFDS	ND / ND / ND	ND	0 of 9
GFTLNSYGIS	VIYSDDRRTGYGDSVK	CRAAGTFDS	ND / ND / ND	ND	0 of 9
GFTLNSYGIS	VIYSDGRRTFYGDSVK	GREALTFDE	0.96 / 1.20 / 1.03	1.07	3 of 9 (4.67)
GFTLLSYGIS	VIYSEGRRTFYGDSVK	GRAAGTFDS	ND / ND / ND	ND	0 of 9
GFTLNSYGIK	VIYSDLRRTFYGRSVK	GRAAGTFDS	2.97 / ND / 3.36	3.17	2 of 9 (2.91)
GFTLNSYTIS	VIYSDDRRTIYGDSVK	GRAAGTFDS	ND / ND / ND	ND	0 of 9
GFTLNSYGIS	VIYSDGRRTCYGDAVK	GRAAGTFDS	2.50 / 3.05 / 3.07	2.87	3 of 9 (4.37)
GFTLNSYGIS	VIYSIGRRTFYGDSVK	GQAAGTFDS	ND / ND / ND	ND	1 of 9 (4.28)
GFTLTSYGIS	VIYSDGRRTFYGDSVA	GRAAGTKDS	ND / ND / ND	ND	1 of 9 (5.33)
GFTLNSYGIS	VIYHEGRRTFYGDSVK	GRAAVTFDS	ND / ND / ND	ND	0 of 9
GFTLNSYGRS	VIYTDGRRTFYGDSVK	GRAACTFDS	ND / 2.38 / 2.82	2.60	0 of 9